Results: patent US7932261B2, “Macrocycle derivatives useful as inhibitors of β-secretase (BACE)” (Janssen Pharmaceutica NV, priority 2006, dated 2011)
Values joined by “and” are separate entries in the source; they are usually repeats but may differ in a detail not shown here. Equal values may be shown once. Read-outs that look alike come from different tables or passages of the source.

The chains behind the UniProt entries cited, without tags or fusion partners. Residues count along the entry.
UniProt P56817, 46-501: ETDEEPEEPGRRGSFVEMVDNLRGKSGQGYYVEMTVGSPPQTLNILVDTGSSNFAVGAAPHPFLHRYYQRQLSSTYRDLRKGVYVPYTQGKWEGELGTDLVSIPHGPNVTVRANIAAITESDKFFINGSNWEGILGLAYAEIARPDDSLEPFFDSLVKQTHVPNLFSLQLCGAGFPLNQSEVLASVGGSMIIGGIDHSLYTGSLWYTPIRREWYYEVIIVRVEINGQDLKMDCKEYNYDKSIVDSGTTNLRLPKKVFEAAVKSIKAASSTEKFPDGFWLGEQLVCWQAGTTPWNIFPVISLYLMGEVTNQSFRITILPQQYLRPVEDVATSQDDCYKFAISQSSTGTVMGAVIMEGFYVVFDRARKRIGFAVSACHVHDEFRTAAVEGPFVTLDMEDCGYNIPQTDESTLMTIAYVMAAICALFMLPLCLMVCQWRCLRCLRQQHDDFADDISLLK

Key:
Type in all cases: biochemical
[1] = target: T1, β-secretase (BACE) (Homo sapiens, UniProt P56817); experiment: in vitro BACE FS1 % Inhibition Assay (Example 13); details: FS1 substrate, pH 5
T1 construct: purchased Panvera

[2] = target: T1, β-secretase (BACE); experiment: in vitro BACE Assay, Ki (Example 14); details: FS1 substrate 50 μM, Km 24 μM, pH 5
[3] = target: human BACE-1 (Homo sapiens, UniProt P56817); experiment: in vitro BACE Assay run by CEREP (Example 15)
[4] = pH 5, read-out: % Inhibition (Example 13) @ 0.3 μM, 0.3 μM compound
[5] = pH 5, read-out: % Inhibition (Example 13) @ 1 μM, 1 μM compound
[6] = pH 5, read-out: % Inhibition (Example 13) @ 3 μM, 3 μM compound

Compound | inhibition at 0.3 µM ([1]; 0.3 μM compound, read-out: % Inhibition (Example 13) @ 0.3 μM) [%] | inhibition at 1 µM ([1]; 1 μM compound, read-out: % Inhibition (Example 13) @ 1 μM) [%] | inhibition at 3 µM ([1]; 3 μM compound, read-out: % Inhibition (Example 13) @ 3 μM) [%] | Ki ([2]; read-out: (Example 14) Ki) | IC50 [3] [µM] | Ki ([2]; (Example 14) Ki (μM)) | inhibition at 0.3 µM [1, 4] [%] | inhibition at 1 µM [1, 5] [%] | inhibition at 3 µM [1, 6] [%]
NC1=Nc2ccc3cc2CN1CCC(=O)N(C1CCCCC1)CCCc1cccc(c1)O3 [Compound 1] | 74 | 105 | 117 | 0.051 µM and 0.031 µM |  |  |  |  | 
NC1=Nc2ccc3cc2CN1[C@H](C1CCCCC1)CCC(=O)N(C1CCCCC1)CCc1cccc(c1)O3 [Compound 2] |  |  |  |  | 0.063 | 0.039 µM and 0.018 µM and 0.0057 µM |  |  | 
NC1=Nc2ccc3cc2CN1[C@@H](C1CCCCC1)CCC(=O)N(C1CCCCC1)CCCc1cccc(c1)O3 [Compound 6] |  |  |  |  |  | 0.19 µM | 65 | 121 | 122
NC1=Nc2ccc3cc2CN1[C@H](C1CCCCC1)CCC(=O)N(C1CCOCC1)CCc1cccc(c1)O3 [Compound 14] |  |  |  | 0.017 µM |  |  | 117 | 138 | 139
